Results taken from patent US20100256153A1, “METHODS FOR PREVENTING OR REDUCING RISK OF MORTALITY” (priority 2009, published 2010).

Experiments:
[1] = tested on: subjects of pooled studies; conditions: Fischer Exact Test, FIG. 11, per 100 comparator
[2] = tested on: subjects of pooled studies; assay: Ischemic serious adverse events (heart or brain related) in pooled studies, Fischer Exact Test analysis (FIG. 12); type: in vivo, human; conditions: FIG. 12, per 100 comparator
Procedure: Additional analyses were conducted to determine whether DPP-4 inhibitors have benefits associated with heart attack and stroke-like events. The saxagliptin data was analyzed using criteria similar to two published studies for sitagliptin (Amatruda et. al.) and vildagliptin (Kothney et. al.).
For sitagliptin the number would be 73 and vildagliptin 70. […] All three DPP-4 inhibitors have a “best estimate” (point estimate) that supports a class effect of lowering incidence of heart attack and stroke.

N#C[C@@H]1CCCN1C(=O)CNC12CC3CC(CC(O)(C3)C1)C2 [vildagliptin]
death, subjects on drug died when 100 subjects on comparator treatment had died (point estimate) [1]: 52 subjects

N[C@@H](CC(=O)N1CCn2c(nnc2C(F)(F)F)C1)Cc1cc(F)c(F)cc1F [sitagliptin]
ischemic SAEs (heart attack or stroke-like events causing death, hospitalization, or near hospitalization), subjects on drug when 100 subjects on comparator had events [2]: 73 subjects | death, subjects on drug died when 100 subjects on comparator treatment had died (point estimate) [1]: 55 subjects
